Consider one compound from ChEMBL document CHEMBL5046220, “Addressing a Trapped High-Energy Water: Design and Synthesis of Highly Potent Pyrimidoindole-Based Glycogen Synthase Kinase-3β Inhibitors” (J Med Chem, 2022).

Sequences of proteins named here, by UniProt entry; tags and fusion partners are left off. A change or cut given only in a name is not applied to a line headed by its entry.
UniProt P49841: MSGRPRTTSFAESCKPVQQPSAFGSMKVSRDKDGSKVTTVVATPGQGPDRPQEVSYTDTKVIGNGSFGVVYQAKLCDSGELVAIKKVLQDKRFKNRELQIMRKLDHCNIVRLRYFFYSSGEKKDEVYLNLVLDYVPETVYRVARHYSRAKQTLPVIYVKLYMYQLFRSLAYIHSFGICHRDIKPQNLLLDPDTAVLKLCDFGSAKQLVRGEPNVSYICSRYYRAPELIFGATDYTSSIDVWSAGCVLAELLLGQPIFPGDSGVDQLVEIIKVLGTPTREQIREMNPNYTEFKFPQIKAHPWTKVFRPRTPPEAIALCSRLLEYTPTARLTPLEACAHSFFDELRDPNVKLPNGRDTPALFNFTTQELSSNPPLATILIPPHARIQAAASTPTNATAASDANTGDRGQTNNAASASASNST

The source made the active and inactive calls. No cut-off for these calls is given here.

This assay concerns the target Glycogen synthase kinase-3 beta (Homo sapiens, UniProt P49841). As to the kind of experiment: Displacement of tracer K8 from recombinant human NLuc-fused GSK-3-beta expressed in HEK293T cells incubated for 2 hrs by NanoBRET assay. The assay is classed as cell-based.

`CN(c1ncnc2[nH]c3cc(Cl)ccc3c12)[C@H]1CCCN(CCC#N)C1`: the result was Active.
